Test results published in PubChem BioAssay (NCI).
Some of these compounds have results that are not shown, active ones among them.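 How tested: cells in 96-well plates exposed to compound for 48 hours at five concentrations. Here, GI50 denotes the concentration required for 50% inhibition of growth. TGI denotes the concentration required for complete inhibition of growth.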

Columns and labels:
Test in all cases: inhibition of tumour cell growth, NCI panel, 48 h
CCRF-CEM leukemia = test system: CCRF-CEM leukemia
MOLT-4 leukemia = test system: MOLT-4 leukemia
ACHN renal = test system: ACHN renal
MDA-MB-231 breast = test system: MDA-MB-231 breast
SF-539 CNS = test system: SF-539 CNS
A549 NSCLC = test system: A549 NSCLC
HCT-15 colon = test system: HCT-15 colon
HS 578T breast = test system: HS 578T breast
SW-620 colon = test system: SW-620 colon
SNB-19 CNS = test system: SNB-19 CNS
SK-OV-3 ovarian = test system: SK-OV-3 ovarian
SK-MEL-28 melanoma = test system: SK-MEL-28 melanoma
NCI-H460 lung = test system: NCI-H460 lung
NCI-H226 lung = test system: NCI-H226 lung
SN12C renal = test system: SN12C renal
HOP-62 NSCLC = test system: HOP-62 NSCLC
MCF7 breast = test system: MCF7 breast
SR leukemia = test system: SR leukemia
M14 melanoma = test system: M14 melanoma
KM12 colon = test system: KM12 colon
K-562 leukemia = test system: K-562 leukemia
RXF 393 renal = test system: RXF 393 renal
LOX IMVI melanoma = test system: LOX IMVI melanoma
HL-60(TB) leukemia = test system: HL-60(TB) leukemia
EKVX NSCLC = test system: EKVX NSCLC
OVCAR-8 ovarian = test system: OVCAR-8 ovarian
HCC-2998 colon = test system: HCC-2998 colon
SF-268 CNS = test system: SF-268 CNS

CC#CC(O)(C(=O)OC1C2CCN(CC2)C1C)C1CCCC1 (stereo not given)
GI50 (CCRF-CEM leukemia): > 100 µM | TGI (CCRF-CEM leukemia): > 100 µM | GI50 (MOLT-4 leukemia): > 100 µM | TGI (MOLT-4 leukemia): > 100 µM | GI50 (ACHN renal): > 100 µM | TGI (ACHN renal): > 100 µM | GI50 (MDA-MB-231 breast): > 100 µM | TGI (MDA-MB-231 breast): > 100 µM | GI50 (SF-539 CNS): > 100 µM | TGI (SF-539 CNS): > 100 µM | GI50 (A549 NSCLC): > 100 µM | TGI (A549 NSCLC): > 100 µM | GI50 (HCT-15 colon): > 100 µM | TGI (HCT-15 colon): > 100 µM | GI50 (HS 578T breast): > 100 µM | TGI (HS 578T breast): > 100 µM | GI50 (SW-620 colon): > 100 µM | TGI (SW-620 colon): > 100 µM | GI50 (SNB-19 CNS): > 100 µM | TGI (SNB-19 CNS): > 100 µM | GI50 (SK-OV-3 ovarian): > 100 µM | TGI (SK-OV-3 ovarian): > 100 µM | GI50 (SK-MEL-28 melanoma): > 100 µM | TGI (SK-MEL-28 melanoma): > 100 µM | GI50 (NCI-H460 lung): > 100 µM | TGI (NCI-H460 lung): > 100 µM | GI50 (NCI-H226 lung): > 100 µM | TGI (NCI-H226 lung): > 100 µM | GI50 (SN12C renal): > 100 µM | TGI (SN12C renal): > 100 µM | GI50 (HOP-62 NSCLC): > 100 µM | TGI (HOP-62 NSCLC): > 100 µM | GI50 (MCF7 breast): > 100 µM | TGI (MCF7 breast): > 100 µM | GI50 (SR leukemia): > 100 µM | TGI (SR leukemia): > 100 µM | GI50 (M14 melanoma): > 100 µM | TGI (M14 melanoma): > 100 µM | GI50 (KM12 colon): > 100 µM | TGI (KM12 colon): > 100 µM | GI50 (K-562 leukemia): > 100 µM | TGI (K-562 leukemia): > 100 µM | GI50 (RXF 393 renal): > 100 µM | TGI (RXF 393 renal): > 100 µM | GI50 (LOX IMVI melanoma): > 100 µM | TGI (LOX IMVI melanoma): > 100 µM | GI50 (HL-60(TB) leukemia): > 100 µM | TGI (HL-60(TB) leukemia): > 100 µM | GI50 (EKVX NSCLC): > 100 µM | TGI (EKVX NSCLC): > 100 µM | GI50 (OVCAR-8 ovarian): > 100 µM | TGI (OVCAR-8 ovarian): > 100 µM | GI50 (HCC-2998 colon): > 100 µM | TGI (HCC-2998 colon): > 100 µM | GI50 (SF-268 CNS): > 100 µM
